These results are taken from patent US20030073731A1, “Compositions and methods of the use thereof achiral analogues of CC-1065 and the duocarmycins” (priority 2000, published 2003).

A value given as a limit tells only on which side of the number the result lay.

In the series the test system is NCI-H332M. In words: NCI in-vitro cytotoxicity screen, Non-Small Cell Lung Cancer panel. The following applies: read-out: LC50; NCI-H32M.

In the case of `COC(=O)c1[nH]c2c(O)cc(NC(=O)c3cc4cc(OC)c(OC)c(OC)c4[nH]3)c(CCCl)c2c1C(=O)OC` [Compound 22, Dimethyl 4-(2-chloroethyl)-7-hydroxy-5-(5,6,7-trimethoxyindole-2-carboxamido)indole-2,3-dicarboxylate], the CC50 was below 50 µM.
